Reference: PubChem BioAssay AID1324 (NMMLSC, 2008)
This is a selection; strong and weak results do not stand in their true shares. The source made the active and inactive calls. The rule behind the calls is not given here.

Target: glutathione S-transferase (GST-GSH binding)
Experiment: GST–glutathione interaction disruption – biochemical, multiplex beads, flow cytometry, HPSMTB buffer, profiling panel (AID 1324);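 note: glutathione beads loaded with GST-green fluorescent protein and no fluorescent Bim peptide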
Conditions: multiplex bead flow cytometry, MCF, concentration not given here

## CCOP1(=S)c2c(C)nn(CCC#N)c2N=C(c2ccc(F)cc2)N1C (stereo unspecified)
  percent span inhibition: inactive
